# The list shows a part of the results, in another mix than the full data. Calls of active or inactive are those of the source. Rule as the data show it: active = activation above about 22%; inactive = the rest.
# Protein sequences, listed by entry. Tags and fused reporters are not part of them. Residues count along the entry.
# UniProt P37231, 232-505 limits assumed: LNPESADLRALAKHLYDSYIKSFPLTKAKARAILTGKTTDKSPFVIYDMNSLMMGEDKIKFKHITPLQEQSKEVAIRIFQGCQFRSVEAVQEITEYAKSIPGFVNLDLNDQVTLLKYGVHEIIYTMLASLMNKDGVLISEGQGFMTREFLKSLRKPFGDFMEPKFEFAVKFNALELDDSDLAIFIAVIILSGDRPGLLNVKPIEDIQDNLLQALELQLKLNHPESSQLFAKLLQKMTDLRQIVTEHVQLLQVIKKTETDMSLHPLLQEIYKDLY
# UniProt Q15596, whole entry partner: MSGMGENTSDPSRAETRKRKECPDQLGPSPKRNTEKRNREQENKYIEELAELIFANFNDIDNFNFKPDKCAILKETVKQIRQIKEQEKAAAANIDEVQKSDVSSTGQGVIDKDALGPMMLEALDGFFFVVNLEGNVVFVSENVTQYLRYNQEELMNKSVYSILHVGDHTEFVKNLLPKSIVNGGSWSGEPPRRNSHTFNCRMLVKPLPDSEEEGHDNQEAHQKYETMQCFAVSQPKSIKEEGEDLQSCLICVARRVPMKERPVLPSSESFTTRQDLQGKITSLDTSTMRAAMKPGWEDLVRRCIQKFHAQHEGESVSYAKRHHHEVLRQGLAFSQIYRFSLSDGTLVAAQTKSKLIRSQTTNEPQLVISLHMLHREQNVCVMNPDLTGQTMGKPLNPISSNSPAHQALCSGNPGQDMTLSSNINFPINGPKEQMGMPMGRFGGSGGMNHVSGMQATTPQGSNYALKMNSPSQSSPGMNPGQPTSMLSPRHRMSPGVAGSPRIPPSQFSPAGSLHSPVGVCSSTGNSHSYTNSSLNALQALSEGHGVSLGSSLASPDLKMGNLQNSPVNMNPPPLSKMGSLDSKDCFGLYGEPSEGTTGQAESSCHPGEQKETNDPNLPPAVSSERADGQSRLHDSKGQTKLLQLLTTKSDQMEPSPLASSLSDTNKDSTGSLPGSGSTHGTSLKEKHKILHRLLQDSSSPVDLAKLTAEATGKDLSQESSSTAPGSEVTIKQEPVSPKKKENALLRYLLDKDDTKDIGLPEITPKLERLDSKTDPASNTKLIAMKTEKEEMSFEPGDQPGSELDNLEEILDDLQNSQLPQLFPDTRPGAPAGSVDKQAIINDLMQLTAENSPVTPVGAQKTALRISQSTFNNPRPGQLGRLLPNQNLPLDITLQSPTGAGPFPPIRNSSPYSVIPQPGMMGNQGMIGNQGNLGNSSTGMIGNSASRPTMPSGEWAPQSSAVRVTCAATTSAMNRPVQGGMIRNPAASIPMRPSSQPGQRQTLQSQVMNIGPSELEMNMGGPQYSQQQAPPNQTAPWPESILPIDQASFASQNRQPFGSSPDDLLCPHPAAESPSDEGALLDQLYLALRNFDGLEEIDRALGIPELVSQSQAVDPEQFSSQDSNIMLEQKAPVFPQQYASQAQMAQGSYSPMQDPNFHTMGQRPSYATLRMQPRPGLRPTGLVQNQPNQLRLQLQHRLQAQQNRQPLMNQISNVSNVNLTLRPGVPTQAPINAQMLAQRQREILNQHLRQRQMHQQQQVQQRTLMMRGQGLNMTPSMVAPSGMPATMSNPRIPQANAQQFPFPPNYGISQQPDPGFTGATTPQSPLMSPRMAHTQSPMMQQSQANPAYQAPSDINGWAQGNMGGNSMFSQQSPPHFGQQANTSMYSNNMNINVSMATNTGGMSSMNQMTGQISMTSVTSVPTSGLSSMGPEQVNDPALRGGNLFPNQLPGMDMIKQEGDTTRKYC
# Target: Peroxisome proliferator-activated receptor gamma (Homo sapiens) (UniProt P37231)
# Experiment: compounds enhancing SRC-2 coactivator binding to PPARgamma – biochemical, HTS, primary screen (AID 1032);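 also: 0% = vehicle and 100% = reference agonist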
# Conditions: PPARgamma LBD-SRC-2 recruitment, at 8 µM, stronger effect = higher value
row,SMILES,activation
1,COc1ccccc1OP(C)(=O)Nc1c(C)n(C)n(-c2ccccc2)c1=O (stereo not drawn),inactive: 5.59%
2,CP(=O)(Oc1ccccc1)N1CCOC1=O (stereo not drawn),inactive: 9.71%
3,CCc1ccc(OP(C)(=O)Nc2cccnc2)cc1 (stereo not drawn),inactive: 1.15%
4,CCN(CC)CC(O)COC(=O)C(O)(c1ccccc1)C1CCCCC1 (stereo not drawn),inactive: 6.75%
5,COc1ccc(OP(C)(=O)Nc2ccc(Br)cc2)cc1 (stereo not drawn),inactive: 1.07%
6,CN(C)C(=O)c1c([N+](=O)[O-])cc([N+](=O)[O-])cc1[N+](=O)[O-],inactive: 4.06%
7,CC(C)(C)c1ccc(OP(C)(=O)O)cc1,inactive: 0.6%
8,COc1ccccc1OP(C)(=O)Nc1ccccc1Br (stereo not drawn),inactive: -1.88%
9,CP(=O)(Nc1ccc(Cl)cc1)Oc1ccc(F)cc1 (stereo not drawn),inactive: 12.2%
10,CCOC(=O)c1ccc(NP(C)(=O)Oc2ccc(Cl)cc2)cc1 (stereo not drawn),inactive: 5.8%
11,CP(=O)(OC12CC3CC(CC(C3)C1)C2)OC12CC3CC(CC(C3)C1)C2,inactive: 13.9%
12,COc1ccccc1OP(C)(=O)Nc1ccc(C)c(C)c1 (stereo not drawn),inactive: -2.69%
13,COc1ccc(OP(C)(=O)Nc2ccccc2Br)cc1 (stereo not drawn),inactive: 3.42%
14,Cc1cc(C)cc(OP(C)(=O)Nc2cccc(C(F)(F)F)c2)c1 (stereo not drawn),inactive: 4.61%
15,CP(=O)(OCCOc1ccccc1)OCCOc1ccccc1,inactive: 0.51%
16,CP(=O)(Nc1ccc(Cl)cc1Cl)Oc1ccccc1 (stereo not drawn),inactive: 3.45%
17,Cc1nc2ccc3ccccc3c2o1.O=[N+]([O-])c1cc([N+](=O)[O-])c(O)c([N+](=O)[O-])c1,inactive: 9.32%
18,COc1ccc(OP(C)(=O)Nc2ccccn2)cc1 (stereo not drawn),inactive: 8.42%
19,CN(C)CCOC(=O)C(O)(c1ccccc1)C1CCCC1 (stereo not drawn),inactive: -2.47%
20,CP(=O)(Nc1ccccn1)Oc1ccccc1 (stereo not drawn),inactive: 0.52%
21,COc1ccccc1OP(C)(=O)Nc1ccc(C)cc1C (stereo not drawn),inactive: 1.49%
22,CCc1ccc(OP(C)(=O)O)cc1,inactive: -4.63%
23,O=[N+]([O-])c1cc([N+](=O)[O-])c(Nc2ccccn2)c([N+](=O)[O-])c1,inactive: 2.75%
24,Cc1c(NP(C)(=O)Oc2ccc(C(C)C)cc2)c(=O)n(-c2ccccc2)n1C (stereo not drawn),inactive: -10.5%
25,CP(=O)(Nc1ccccc1F)Oc1ccccc1 (stereo not drawn),inactive: 3.25%
26,CC(C)c1ccc(OP(C)(=O)Nc2ccc(SC(F)(F)F)cc2)cc1 (stereo not drawn),inactive: 5.75%
27,O=C(OCCN1CCN(CCOCc2ccccc2)CC1)C(O)(c1ccccc1)c1ccccc1,inactive: -11.6%
28,CCOC(=O)c1ccc(NP(C)(=O)Oc2ccc(F)cc2)cc1 (stereo not drawn),inactive: 2.33%

# Source: PubChem BioAssay AID1032 (The Scripps Research Institute Molecular Screening Center, 2008)
